{"sequences": {"note": "Chains of the proteins cited; added tags and fusions are not shown. Lines headed by an entry give the natural chain unless they say otherwise; changes in a name come on top. Residues count along the entry.", "UniProt Q9JHG7, whole entry": "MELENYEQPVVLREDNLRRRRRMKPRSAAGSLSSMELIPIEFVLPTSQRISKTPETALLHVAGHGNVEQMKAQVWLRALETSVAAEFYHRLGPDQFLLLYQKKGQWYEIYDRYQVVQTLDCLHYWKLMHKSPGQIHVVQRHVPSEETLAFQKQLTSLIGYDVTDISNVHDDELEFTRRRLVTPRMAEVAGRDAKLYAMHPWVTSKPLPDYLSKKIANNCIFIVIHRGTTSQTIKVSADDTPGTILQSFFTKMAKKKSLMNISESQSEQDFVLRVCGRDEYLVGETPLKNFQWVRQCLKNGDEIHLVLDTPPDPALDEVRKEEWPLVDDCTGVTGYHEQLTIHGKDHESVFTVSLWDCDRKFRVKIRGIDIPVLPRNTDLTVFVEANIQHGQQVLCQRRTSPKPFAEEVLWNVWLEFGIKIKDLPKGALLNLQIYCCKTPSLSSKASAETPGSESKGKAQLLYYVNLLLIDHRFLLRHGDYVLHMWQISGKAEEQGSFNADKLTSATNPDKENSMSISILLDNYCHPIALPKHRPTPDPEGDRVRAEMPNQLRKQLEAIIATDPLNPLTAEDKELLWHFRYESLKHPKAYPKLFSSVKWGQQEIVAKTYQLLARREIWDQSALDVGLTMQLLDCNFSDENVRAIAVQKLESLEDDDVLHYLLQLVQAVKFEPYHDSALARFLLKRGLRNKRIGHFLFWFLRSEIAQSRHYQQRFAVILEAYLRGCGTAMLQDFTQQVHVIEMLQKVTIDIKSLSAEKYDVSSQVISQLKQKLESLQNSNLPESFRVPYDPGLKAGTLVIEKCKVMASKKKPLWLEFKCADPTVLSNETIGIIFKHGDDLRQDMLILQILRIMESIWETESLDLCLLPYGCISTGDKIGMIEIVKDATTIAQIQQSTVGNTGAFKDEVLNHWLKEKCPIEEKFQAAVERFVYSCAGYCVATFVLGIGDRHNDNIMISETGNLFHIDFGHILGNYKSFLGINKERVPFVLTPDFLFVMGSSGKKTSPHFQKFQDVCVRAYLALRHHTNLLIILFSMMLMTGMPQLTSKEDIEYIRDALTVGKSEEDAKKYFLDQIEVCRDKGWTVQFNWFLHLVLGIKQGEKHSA", "UniProt P42338, whole entry": "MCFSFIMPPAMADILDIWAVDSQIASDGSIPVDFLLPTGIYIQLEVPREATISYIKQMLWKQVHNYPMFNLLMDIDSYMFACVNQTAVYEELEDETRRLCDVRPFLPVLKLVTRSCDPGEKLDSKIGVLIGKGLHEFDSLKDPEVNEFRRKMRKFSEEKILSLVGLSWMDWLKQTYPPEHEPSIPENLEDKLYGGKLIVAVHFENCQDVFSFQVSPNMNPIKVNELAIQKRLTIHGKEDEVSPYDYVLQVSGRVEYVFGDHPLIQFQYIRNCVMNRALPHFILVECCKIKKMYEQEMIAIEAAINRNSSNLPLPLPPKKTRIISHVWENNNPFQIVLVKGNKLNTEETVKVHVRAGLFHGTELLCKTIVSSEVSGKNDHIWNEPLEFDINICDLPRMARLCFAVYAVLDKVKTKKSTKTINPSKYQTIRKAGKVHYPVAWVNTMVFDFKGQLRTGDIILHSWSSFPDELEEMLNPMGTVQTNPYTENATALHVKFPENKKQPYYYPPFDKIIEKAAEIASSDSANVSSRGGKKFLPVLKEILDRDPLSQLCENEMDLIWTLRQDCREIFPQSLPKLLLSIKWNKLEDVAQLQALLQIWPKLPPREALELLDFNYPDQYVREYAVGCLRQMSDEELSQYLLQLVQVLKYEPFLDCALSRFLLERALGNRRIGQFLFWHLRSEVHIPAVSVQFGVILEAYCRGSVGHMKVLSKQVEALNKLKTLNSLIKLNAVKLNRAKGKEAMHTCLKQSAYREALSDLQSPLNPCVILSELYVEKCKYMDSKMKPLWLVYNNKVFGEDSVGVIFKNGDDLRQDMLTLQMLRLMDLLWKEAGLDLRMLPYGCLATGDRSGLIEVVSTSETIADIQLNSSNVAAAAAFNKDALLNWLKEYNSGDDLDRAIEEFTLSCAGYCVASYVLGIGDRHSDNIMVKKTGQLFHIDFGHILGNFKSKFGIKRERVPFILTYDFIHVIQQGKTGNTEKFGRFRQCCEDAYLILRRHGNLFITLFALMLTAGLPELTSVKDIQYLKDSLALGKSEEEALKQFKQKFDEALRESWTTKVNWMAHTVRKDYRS", "UniProt O00329, whole entry": "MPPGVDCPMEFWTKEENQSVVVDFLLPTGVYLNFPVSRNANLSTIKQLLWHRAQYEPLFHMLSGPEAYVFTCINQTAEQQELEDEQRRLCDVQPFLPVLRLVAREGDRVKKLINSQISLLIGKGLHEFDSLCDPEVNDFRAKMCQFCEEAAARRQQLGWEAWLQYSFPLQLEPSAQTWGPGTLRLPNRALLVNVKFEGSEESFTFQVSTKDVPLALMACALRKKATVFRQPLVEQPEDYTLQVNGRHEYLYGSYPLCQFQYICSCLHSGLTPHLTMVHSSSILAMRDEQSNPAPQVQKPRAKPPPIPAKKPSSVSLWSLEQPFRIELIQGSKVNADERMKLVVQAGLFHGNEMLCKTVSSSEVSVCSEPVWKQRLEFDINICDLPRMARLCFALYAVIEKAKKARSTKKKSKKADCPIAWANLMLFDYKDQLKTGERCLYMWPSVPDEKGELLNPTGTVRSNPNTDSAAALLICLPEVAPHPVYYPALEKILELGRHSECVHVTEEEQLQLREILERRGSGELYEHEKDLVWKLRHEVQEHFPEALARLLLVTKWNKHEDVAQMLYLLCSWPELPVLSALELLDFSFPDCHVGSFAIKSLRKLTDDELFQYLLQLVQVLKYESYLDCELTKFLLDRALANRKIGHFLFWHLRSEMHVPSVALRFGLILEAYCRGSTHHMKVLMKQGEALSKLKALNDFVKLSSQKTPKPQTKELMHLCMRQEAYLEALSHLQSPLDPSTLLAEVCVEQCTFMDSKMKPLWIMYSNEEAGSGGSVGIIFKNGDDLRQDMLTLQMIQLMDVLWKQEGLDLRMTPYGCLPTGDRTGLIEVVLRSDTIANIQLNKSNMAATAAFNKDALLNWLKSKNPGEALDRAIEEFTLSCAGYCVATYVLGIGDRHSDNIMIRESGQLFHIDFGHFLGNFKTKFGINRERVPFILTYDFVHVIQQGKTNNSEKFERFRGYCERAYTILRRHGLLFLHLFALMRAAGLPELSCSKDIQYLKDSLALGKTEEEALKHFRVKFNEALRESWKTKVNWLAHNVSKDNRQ", "UniProt P27986, whole entry partner": "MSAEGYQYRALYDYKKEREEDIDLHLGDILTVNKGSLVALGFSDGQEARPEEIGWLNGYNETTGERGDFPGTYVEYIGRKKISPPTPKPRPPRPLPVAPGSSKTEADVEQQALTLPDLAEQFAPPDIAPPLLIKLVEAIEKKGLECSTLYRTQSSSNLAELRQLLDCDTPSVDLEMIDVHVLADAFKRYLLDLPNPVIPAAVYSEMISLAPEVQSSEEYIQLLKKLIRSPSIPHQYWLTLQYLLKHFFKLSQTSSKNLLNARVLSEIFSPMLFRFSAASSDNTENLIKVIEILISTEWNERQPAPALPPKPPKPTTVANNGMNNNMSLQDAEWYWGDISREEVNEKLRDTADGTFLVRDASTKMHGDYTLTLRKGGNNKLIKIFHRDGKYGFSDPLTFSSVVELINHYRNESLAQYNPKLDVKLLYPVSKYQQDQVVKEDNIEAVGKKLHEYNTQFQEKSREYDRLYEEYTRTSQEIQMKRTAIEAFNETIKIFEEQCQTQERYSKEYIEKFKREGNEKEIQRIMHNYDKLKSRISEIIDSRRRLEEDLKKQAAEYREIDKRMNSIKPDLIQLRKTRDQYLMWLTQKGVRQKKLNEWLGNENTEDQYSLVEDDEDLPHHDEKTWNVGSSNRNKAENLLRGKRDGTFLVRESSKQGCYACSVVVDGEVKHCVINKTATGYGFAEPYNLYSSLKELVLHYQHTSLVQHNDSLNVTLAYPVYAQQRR", "UniProt P27986, 2-724 partner limits assumed": "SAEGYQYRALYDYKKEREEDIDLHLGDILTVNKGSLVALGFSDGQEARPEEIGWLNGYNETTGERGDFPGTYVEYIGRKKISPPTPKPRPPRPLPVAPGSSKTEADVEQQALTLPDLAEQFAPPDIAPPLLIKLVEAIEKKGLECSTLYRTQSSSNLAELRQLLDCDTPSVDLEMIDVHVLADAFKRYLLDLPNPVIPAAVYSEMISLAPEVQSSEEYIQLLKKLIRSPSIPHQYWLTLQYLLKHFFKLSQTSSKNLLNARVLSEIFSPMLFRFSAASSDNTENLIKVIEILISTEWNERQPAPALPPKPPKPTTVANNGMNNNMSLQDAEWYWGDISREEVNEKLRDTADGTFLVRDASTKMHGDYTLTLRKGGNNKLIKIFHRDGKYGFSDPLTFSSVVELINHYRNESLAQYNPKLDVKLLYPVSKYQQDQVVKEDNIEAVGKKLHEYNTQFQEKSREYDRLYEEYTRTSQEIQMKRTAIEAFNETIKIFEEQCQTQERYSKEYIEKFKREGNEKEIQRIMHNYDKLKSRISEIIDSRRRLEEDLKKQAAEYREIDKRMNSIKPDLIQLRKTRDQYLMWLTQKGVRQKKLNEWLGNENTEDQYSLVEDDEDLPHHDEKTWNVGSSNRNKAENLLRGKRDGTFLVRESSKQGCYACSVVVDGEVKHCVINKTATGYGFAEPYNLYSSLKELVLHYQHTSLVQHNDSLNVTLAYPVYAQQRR"}, "source": "patent US20150307520A1", "about": "“NOVEL HETEROARYL AND HETEROCYCLE COMPOUNDS, COMPOSITIONS AND METHODS THEREOF” (HUTCHISON MEDIPHARMA LIMITED, priority 2012, published 2015)", "key": {"PI3Kγ": {"target": "PI3Kγ (Mus musculus, UniProt Q9JHG7)", "test": "Acumen Assay - Raw264.7 p-AKT Assay (C5a stimulated)", "format": "cell-based", "conditions": "read-out: PI3Kγ cell-C5a Raw264.7 IC50; Raw264.7 macrophage cells, compound 30 min, stimulated with 10 nM C5a for 5 min, p-AKT (Ser473) readout"}, "p110β/p85α": {"target": "p110β/p85α (Homo sapiens, UniProt P42338)", "test": "Transcreener KINASE Assay, kinase inhibition of p110β/p85α", "conditions": "1 uM test compound"}, "p110δ/p85α": {"target": "p110δ/p85α (Homo sapiens, UniProt O00329)", "test": "Transcreener KINASE Assay, kinase inhibition of p110δ/p85α", "format": "biochemical", "conditions": "1 uM test compound"}}}
{"compound": "C[C@H]1CN(c2nc(N)nc3c2C(=O)CCN3)[C@@H]1c1nn2ccc(Cl)c2c(=O)n1-c1ccccc1", "values": [{"measurement": "IC50", "setting": "PI3Kγ", "result": 18, "unit": "nM"}, {"measurement": "PI3Kβ IH % @ 1 uM", "setting": "p110β/p85α", "result": 65.1, "unit": "%"}, {"measurement": "PI3Kδ IH % @ 1 uM", "setting": "p110δ/p85α", "result": ">100", "unit": "%"}]}
